We go through 3 compounds from patent US20100221240A1, “Chemically Modified Peptide Analogs” (FRAUNHOFER-GESELLSCHAFT ZUR FORDERUNG DER ANGEWANDTEN …, priority 2004, published 2010).

Series [1] concerns the target T1, (human) IAPP receptor (Homo sapiens, UniProt P30988).
T1 construct: Specific IAPP receptors are expressed in the MCF-7 cell line; endogenous in cells; host or cells: MCF-7 (human breast cancer cells)
T1 sequence (P30988 25-474): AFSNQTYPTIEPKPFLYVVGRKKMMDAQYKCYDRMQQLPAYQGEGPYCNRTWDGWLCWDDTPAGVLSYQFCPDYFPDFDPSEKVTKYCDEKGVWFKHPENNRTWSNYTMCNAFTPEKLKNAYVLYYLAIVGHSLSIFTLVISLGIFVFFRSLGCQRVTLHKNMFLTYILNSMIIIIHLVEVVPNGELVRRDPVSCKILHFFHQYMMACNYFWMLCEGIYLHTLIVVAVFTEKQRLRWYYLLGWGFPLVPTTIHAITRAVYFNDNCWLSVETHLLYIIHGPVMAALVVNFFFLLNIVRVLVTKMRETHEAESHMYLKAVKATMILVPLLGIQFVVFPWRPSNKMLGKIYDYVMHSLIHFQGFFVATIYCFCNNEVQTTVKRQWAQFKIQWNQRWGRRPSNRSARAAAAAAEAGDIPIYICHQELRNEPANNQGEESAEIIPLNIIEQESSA
Nature of the series: IAPP receptor binding test with [125I]-rIAPP on MCF-7 cells. The note with it: displacement of [125I]-rIAPP, 1 h at RT. On the procedure: To test the effect of the analogs as (human) IAPP receptor agonists, first their receptor binding affinity to cells which express this receptor was tested. One example of such cells is the MCF-7 cell line (Zimmermann, et al., J. Endocrinology (1997), 155, 423-31), which originates from human breast cancer cells. Specific IAPP receptors are expressed in the MCF-7 cell line, for which reason this cell line is widely used for testing IAPP agonists/antagonists.
The receptor binding test was carried out in a manner analogous to that described by Zimmermann, et al., J. Endocrinology (1997) 155, 423-31. The binding of the rat IAPP (rIAPP) sequence labeled with ^125I, which is the strongest receptor ligand known to date, in the presence of IAPP or the IAPP-GI, IAPP-AL, or IAPP-FA peptide analogs was quantitatively determined.
In general terms: In a radioligand displacement assay an active substance lowers the binding of a labelled ligand.

The next series has as its system RIN5fm cell line. The series is classed as cell-based. The source says:
IAPP amyloid aggregates are cytotoxic for pancreatic β-cells and for many other cells. It is assumed that the cytotoxic effect of IAPP and other amyloid polypeptides is associated with their aggregation to the amyloid. It follows that since the analogs are not amyloidogenic, they should also not be cytotoxic. To test this hypothesis the MTT cytotoxicity test, which is based on the reduction of the dye 3-[4,5-dimethylthiazole-2-yl]-2,5-diphenyltetrazolium bromide (MTT) by “healthy” cells having an intact redox potential, was used (Shearman et al., J. Neurochem. (1995) 65, 218-227; Shearman et al., Proc. Natl. Acad. Sci. USA (1994) 91, 1470-74). The latter is an early indicator of cell viability or damage. It has been shown that the cytotoxic effect of amyloid aggregates, including IAPP, may be quantified by this test. The cell toxicity of IAPP and of the analogs was investigated using the RIN5fm pancreatic cell line as described by Kapurniotu et al., J. Mol. Biol. (2002) 315, 339-350) (FIG. 4). […] After incubation with the cells for approximately 20 h, MTT was added thereto, and after acting for 2 h the MIT reduction potential of the cells was spectrophotometrically determined. […]

The format of series [2] is physicochemical. The note with it: pH 7.4. On the procedure:
a) The sedimentation test was used to investigate the solubility of the analogs compared to IAPP. The quantity of precipitated or soluble peptide was determined as a function of time. In one typical experiment, first a peptide solution at a given concentration (1, 10, or 100 μM) in 10 mM sodium phosphate buffer, pH 7.4 was prepared. Aliquots of this solution were centrifuged at specified times (20200 g, 20 min), and precipitated protein in the pellet and supernatant was quantified using the bicinchonic acid (BCA) protein determination assay. FIG. 1 illustrates several results from this test. […] After 20 h IAPP was completely precipitated; in contrast, the N-methylated IAPP-LA [sic; IAPP-AL], IAPP-GI, and IAPP-AF [sic; IAPP-FA] analogs remained soluble over 14 days, even at a concentration of 100 μM. IAPP completely precipitated after only 2 h under the latter-referenced conditions (100 μM).

The target of series [3] is T1, (human) IAPP receptor. Description: Adenylate cyclase activation test (cAMP Biotrak ELISA) on MCF-7 cells. Type of series: cell-based. The note with it: 15 min, 37° C. On the procedure:
To test the agonistic potential of the analogs, their adenylate cyclase activation potential (AC activation) was then tested. It has been shown that several of the receptor-mediated biological effects of IAPP are imparted by adenylate cyclase activation. The AC activation was determined by quantifying the cAMP produced after treating the cells (15 min, 37° C.) with various concentrations of IAPP or the analogs, using the cAMP Biotrak ELISA (Amersham). The test was performed on MCF-7 cells in a manner analogous to that described by Zimmermann, et al., J. Endocrinology (1997) (loc. cit.).
Background: ELISA stands for enzyme-linked immunosorbent assay.

For a further series, the system named is RIN5fm cells. Nature of the series: Apoptosis ELISA (cell death detection kit, cytosolic nucleosomes). Type of series: cell-based. On the procedure:
In the second test, the effect of IAPP-GI on apoptotic β-cell death caused by IAPP amyloid was investigated (it is known that IAPP-mediated cell death is caused primarily by apoptosis). To this end, solutions of IAPP alone and in the presence of IAPP-GI (1:1) (5 μM in 10 mM sodium phosphate buffer, pH 7.4) were prepared, and were incubated with the plated cells at a final concentration of 500 nM for 20 h. The apoptosis was then quantified by use of a commercial apoptosis ELISA (cell death detection kit from Roche). The cytosolic nucleosomes, which are an early and specific indicator of apoptotic cell death, were quantified by use of this ELISA assay.

Structures are written as SMILES.

Turning to `CC[C@H](C)[C@@H](C(=O)N[C@@H](CC(C)C)C(=O)N[C@@H](CO)C(=O)N[C@@H](CO)C(=O)N[C@H](C(=O)N[C@@H](CC(N)=O)C(=O)N[C@H](C(=O)NCC(=O)N[C@@H](CO)C(=O)N[C@@H](CC(N)=O)C(=O)N[C@H](C(=O)N[C@@H](Cc1ccc(O)cc1)C(N)=O)[C@@H](C)O)C(C)C)[C@@H](C)O)N(C)C(=O)[C@H](C)NC(=O)CN(C)C(=O)[C@H](Cc1ccccc1)NC(=O)[C@H](CC(N)=O)NC(=O)[C@H](CC(N)=O)NC(=O)[C@H](CO)NC(=O)[C@H](CO)NC(=O)[C@H](Cc1c[nH]cn1)NC(=O)[C@@H](NC(=O)[C@H](CC(C)C)NC(=O)[C@H](Cc1ccccc1)NC(=O)[C@H](CC(N)=O)NC(=O)[C@H](C)NC(=O)[C@H](CC(C)C)NC(=O)[C@H](CCCNC(=N)N)NC(=O)[C@H](CCC(N)=O)NC(=O)[C@@H](NC(=O)[C@H](C)NC(=O)[C@@H]1CSSC[C@H](NC(=O)[C@@H](N)CCCCN)C(=O)N[C@@H](CC(N)=O)C(=O)N[C@@H]([C@@H](C)O)C(=O)N[C@@H](C)C(=O)N[C@@H]([C@@H](C)O)C(=O)N1)[C@@H](C)O)C(C)C` [IAPP-GI, [(N-Me)G^24, (N-Me)I^26]-IAPP], the “rank of receptor affinity among analogs tested” value on (human) IAPP receptor [1] is “weakest”. Also, the “rank as inhibitor of IAPP cytotoxicity among analogs tested” value in the series on RIN5fm cell line was “most potent inhibitor of IAPP cytotoxicity”. Besides, the “time over which peptide remained soluble” value in series [2] is reported as no less than 14 days. Besides, at (human) IAPP receptor [3], the “AC activation potential compared with IAPP” value is on record as “weaker agonist than IAPP” and the “agonist character at the IAPP receptor” value was “full IAPP agonists”. For the same compound, in the series on RIN5fm cells (IAPP with IAPP-GI 1:1, final concentration 500 nM, 20 h), the “effect on IAPP-induced apoptotic β-cell death” value was “able to protect pancreatic β-cells from IAPP-induced apoptotic cell death”. Further, the “cytotoxicity of the analog alone in the apoptosis assay” value in the series on RIN5fm cells (IAPP-GI alone, same conditions, RIN5fm cells) is “no cytotoxicity”.
In the case of `CC[C@H](C)[C@H](NC(=O)[C@H](C)N(C)C(=O)CNC(=O)[C@H](Cc1ccccc1)NC(=O)[C@H](CC(N)=O)NC(=O)[C@H](CC(N)=O)NC(=O)[C@H](CO)NC(=O)[C@H](CO)NC(=O)[C@H](Cc1c[nH]cn1)NC(=O)[C@@H](NC(=O)[C@H](CC(C)C)NC(=O)[C@H](Cc1ccccc1)NC(=O)[C@H](CC(N)=O)NC(=O)[C@H](C)NC(=O)[C@H](CC(C)C)NC(=O)[C@H](CCCNC(=N)N)NC(=O)[C@H](CCC(N)=O)NC(=O)[C@@H](NC(=O)[C@H](C)NC(=O)[C@@H]1CSSC[C@H](NC(=O)[C@@H](N)CCCCN)C(=O)N[C@@H](CC(N)=O)C(=O)N[C@@H]([C@@H](C)O)C(=O)N[C@@H](C)C(=O)N[C@@H]([C@@H](C)O)C(=O)N1)[C@@H](C)O)C(C)C)C(=O)N(C)[C@@H](CC(C)C)C(=O)N[C@@H](CO)C(=O)N[C@@H](CO)C(=O)N[C@H](C(=O)N[C@@H](CC(N)=O)C(=O)N[C@H](C(=O)NCC(=O)N[C@@H](CO)C(=O)N[C@@H](CC(N)=O)C(=O)N[C@H](C(=O)N[C@@H](Cc1ccc(O)cc1)C(N)=O)[C@@H](C)O)C(C)C)[C@@H](C)O` [IAPP-AL, [(N-Me)A^25, (N-Me)L^27]-IAPP], the “rank of receptor affinity among analogs tested” value at (human) IAPP receptor [1] is reported as “highest receptor affinity”. In addition, the “time over which peptide remained soluble” value in series [2] is no less than 14 days. Further, on (human) IAPP receptor [3], the “AC activation potential compared with IAPP” value was “better AC activation ligand than IAPP”, the “agonist character at the IAPP receptor” value is “full IAPP agonists” and the “rank of agonist potency among analogs tested” value was “most potent agonist”.
Turning to `CC[C@H](C)[C@H](NC(=O)[C@H](C)N(C)C(=O)CNC(=O)[C@H](Cc1ccccc1)N(C)C(=O)[C@H](CC(N)=O)NC(=O)[C@H](CC(N)=O)NC(=O)[C@H](CO)NC(=O)[C@H](CO)NC(=O)[C@H](Cc1c[nH]cn1)NC(=O)[C@@H](NC(=O)[C@H](CC(C)C)NC(=O)[C@H](Cc1ccccc1)NC(=O)[C@H](CC(N)=O)NC(=O)[C@H](C)NC(=O)[C@H](CC(C)C)NC(=O)[C@H](CCCNC(=N)N)NC(=O)[C@H](CCC(N)=O)NC(=O)[C@@H](NC(=O)[C@H](C)NC(=O)[C@@H]1CSSC[C@H](NC(=O)[C@@H](N)CCCCN)C(=O)N[C@@H](CC(N)=O)C(=O)N[C@@H]([C@@H](C)O)C(=O)N[C@@H](C)C(=O)N[C@@H]([C@@H](C)O)C(=O)N1)[C@@H](C)O)C(C)C)C(=O)N[C@@H](CC(C)C)C(=O)N[C@@H](CO)C(=O)N[C@@H](CO)C(=O)N[C@H](C(=O)N[C@@H](CC(N)=O)C(=O)N[C@H](C(=O)NCC(=O)N[C@@H](CO)C(=O)N[C@@H](CC(N)=O)C(=O)N[C@H](C(=O)N[C@@H](Cc1ccc(O)cc1)C(N)=O)[C@@H](C)O)C(C)C)[C@@H](C)O` [IAPP-FA, [(N-Me)F^23, (N-Me)A^25]-IAPP], in series [2], the “time over which peptide remained soluble” value is given as no less than 14 days. In addition, at (human) IAPP receptor [3], the “AC activation potential compared with IAPP” value is reported as “the same AC activation potential as-IAPP” and the “agonist character at the IAPP receptor” value is listed as “full IAPP agonists”.
